{
  "source": "paper PMC5760734",
  "about": "“Development of an oral once-weekly drug delivery system for HIV antiretroviral therapy” (Nature Communications, 2018)",
  "origin": "cited, not measured here",
  "details": "dosed orally in pigs; cited from earlier work",
  "data": [
    {"substance": "cyclosporine A", "values": [
      {"measurement": "concentrations achieved in pigs relative to those observed in humans", "value": "about one tenth"}
    ]}
  ]
}
